Assay type in all cases: cell-based
Data set [1] has as its system BT474-M3 cells. Description: Spheroid in vitro tumor model assay. Conditions: dose range.
Another data set deals with BT474-M3-Aro cells. The experiment in a line: Aromatase-overexpressing BT474-M3 proliferation assay (WST-1). Conditions: androstenedione (A4) 200 nM and heregulin 2 nM, three days; ratio 10:20:1 MM-111 to letrozole to lapatinib. As for the experimental part: After overnight incubation, indicated treatments were introduced in the presence of androstenedione (A-4; 200 nM) and heregulin (HRG; 2 nM). […] Cell viability in the presence of 5% charcoal-stripped FBS was set as control (100%).
Androstenedione is a steroid hormone that is converted to estrogen by aromatase.
Background: Tetrazolium dyes change colour on reduction, which living cells bring about.

The next data set relates to phospho-ErbB3 (pErbB3). The experiment in a line: Cell signaling assay, pErbB3 ELISA, BT474-M3. As for the experimental part:
(§1) Cell lysates are probed for phospho-ErbB3 (pErbB3), and phospho-AKT (pAKT) by ELISA as described previously (Schoeberl et al, 2009) Inhibitor IC50 values are calculated by fitting dose-response data to a 4-parameter sigmoidal curve (GraphPad Prism®, GraphPad Software, Inc., La Jolla, Calif.).
Model-generated dose-response curves overlay the experimental data (FIG. 7a). […] Untreated and heregulin-stimulated cells were probed for pErbB3 and pAKT and the IC50 was calculated (FIG. 7b).
(§2) CRL-1504®), cells were incubated with serial dilutions of either inhibitor for 15 minutes, 1 hour, 4 hours, and 24 hours followed by stimulation with 5 nM heregulin for 10 min Amounts of pAKT and pErbB3 were measured by ELISA essentially as described.

Data set [2] concerns BT474-M3 cells. Description: Apoptosis assay (Annexin V/PI FACS) in spheroids. Conditions: MM-111 100 nM, lapatinib 33 nM, 72 hours.
Another data set has as its system phospho-AKT (pAKT). The experiment in a line: Cell signaling assay, pAKT ELISA, BT474-M3. Conditions: BT474-M3 cells, stimulation with 5 nM heregulin for 10 min; read-out: IC50, reduction of pAKT levels. As for the experimental part:
as §1, §2
(In general: ELISA stands for enzyme-linked immunosorbent assay.)

The test system of the next data set is BT-474-M3 cells. The experiment in a line: T-DM1 and heregulin dose matrix cell viability, BT-474-M3. Conditions: T-DM1 0 μg/ml, with MM-111 1 μM, 72 h.

On to `C[C@]12CC[C@@H]3c4ccc(O)cc4C[C@@H](CCCCCCCCC[S+]([O-])CCCC(F)(F)C(F)(F)F)[C@H]3[C@@H]1CC[C@@H]2O` (stereo partly drawn) [fulvestrant, reference compound], for which the spheroid growth entry in the data set with BT474-M3 cells [1] (dual ligand (estrogen and heregulin) stimulated) is on record as “inhibited spheroid growth”; in the data set with BT474-M3 cells [1] (estrogen-stimulated, six days), “showed inhibitory effects on spheroid growth”; in the data set on BT474-M3 cells [1] (heregulin (HRG)-stimulated), “did not inhibit heregulin stimulated spheroid growth”.

On to `CS(=O)(=O)CCNCc1ccc(-c2ccc3ncnc(Nc4ccc(OCc5cccc(F)c5)c(Cl)c4)c3c2)o1` [lapatinib], for which the cell growth inhibition result in the data set with BT474-M3-Aro cells is recorded as “did not result in growth inhibition except at high concentrations”. Besides, the “inhibition of heregulin-activated signaling (pErbB3 and pAKT)” value with phospho-ErbB3 (pErbB3) (BT474-M3, 5 nM heregulin 10 min vs unstimulated) is listed as “not an effective inhibitor of heregulin-activated signaling”.

Usually IC50 stands for the concentration that inhibits the measured activity by half. With MM-111, the total apoptotic cells entry in the data set with BT474-M3 cells [2] is given as “about 20%”. For the same compound, the IC50 in the data set with phospho-AKT (pAKT) stood at 10 nM; with phospho-ErbB3 (pErbB3) (BT474-M3 cells, stimulation with 5 nM heregulin for 10 min, read-out: IC50, reduction of pErbB3 levels) it was 3 nM. The cell growth inhibition entry in the data set with BT474-M3-Aro cells was “inhibited cell proliferation to a similar extent”. Moreover, the spheroid growth result in the data set with BT474-M3 cells [1] (estrogen-stimulated, six days) is “showed inhibitory effects on spheroid growth”. For the same compound, the cell viability is given as 100.0001 % of control in the data set on BT-474-M3 cells (HRG 0 nM); 116.4349 % of control with BT-474-M3 cells (HRG 0.313 nM); 123.4726 % of control in the data set with BT-474-M3 cells (HRG 0.625 nM); 132.3855 % of control in the data set with BT-474-M3 cells (HRG 1.25 nM); 131.572 % of control in the data set with BT-474-M3 cells (HRG 2.5 nM); 146.0121 % of control in the data set with BT-474-M3 cells (HRG 5 nM). In the data set on BT-474-M3 cells (HRG 10 nM), the cell viability is given as 157.2453 % of control.

`N#Cc1ccc(C(c2ccc(C#N)cc2)n2cncn2)cc1` [letrozole]: the cell growth inhibition result with BT474-M3-Aro cells is on record as “did not result in significant inhibition of spheroid cell growth”.

The record behind these values is patent US20150202287A1, “COMBINATION THERAPIES COMPRISING ANTI-ERBB3 AGENTS” (Merrimack Pharmaceuticals, Inc., priority 2012, published 2015).
